## Reported properties for industrial, environmental and drug-like chemicals

Source: data files of OPERA 2.9 (Mansouri et al.), github.com/kmansouri/OPERA.

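The OPERA project collected these measurements from public sources as training and test data for property models. A listed value is a point estimate from one report or more. Conditions of the individual experiments are not part of the data. Where a salt, mixture or single isomer is drawn, the source does not say that exactly this form was tested. Some upstream entries may be estimates or bounds without being marked so.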

Melting points are in °C.
The boiling point refers to atmospheric pressure (760 mmHg), by the definition of the set.
logP is the log10 of the octanol-water partition coefficient; higher is more lipophilic.
Solubility in water is on a log10 molar scale (set defined at 25 °C).
Vapor pressure is log10 of mmHg; the set covers 15 to 30 °C, mostly 20 to 25 °C.
The Henry's law constant is on a log10 scale in atm·m3/mol (set defined at 25 °C); higher favours air over water.
The unbound fraction in human plasma runs from 0 (all bound) to 1 (all free).
Intrinsic clearance (human, µL/min per 10^6 hepatocytes): higher is faster turnover, and 0 stands for none detected.
Cells with "n/a" have no entry in this list.

SMILES,name,mp (°C),bp (°C),logP (octanol/water),log solubility (log10 mol/L),vapor pressure (log10 mmHg),log H (log10 atm·m3/mol),plasma fu,intrinsic clearance (µL/min/10^6 cells)
CCN(CC)C(=O)SCc1ccc(Cl)cc1,Thiobencarb,n/a,n/a,n/a,n/a,n/a,-6.44,n/a,233
CC(C)CC(C)c1sccc1NC(=O)c1cn(C)nc1C(F)(F)F (stereo unspecified),Penthiopyrad,n/a,n/a,n/a,-4.68,-7.317,n/a,n/a,n/a
O=C1c2ccccc2C(=O)C1C(=O)C(c1ccccc1)c1ccc(Cl)cc1 (stereo unspecified),Chlorophacinone,n/a,n/a,4.2,n/a,n/a,n/a,n/a,0
C[C@]12CC[C@H]3[C@@H](C=C[C@]4(O)C[C@@H](O)CC[C@]34C)[C@@H]1[C@@H]1C[C@@H]1C2=O,n/a,n/a,n/a,2.03,-5.546,n/a,n/a,n/a,n/a
CCOP(=O)(N=C1SCC(C)S1)OCC (stereo unspecified),Mephosfolan,n/a,n/a,n/a,n/a,-4.498,-9.923,n/a,n/a
CCc1ccc(C(=O)NN(C(=O)c2cc(C)cc(C)c2)C(C)(C)C)cc1,Tebufenozide,n/a,n/a,n/a,n/a,n/a,-9.187,0.0333,22.4
Brc1ccc(Oc2ccc(Br)cc2Br)cc1,"2,4,4'-Tribromodiphenyl ether",64.2,n/a,n/a,-6.425,n/a,n/a,n/a,n/a
CCCSC(=O)Cl,S-(Propyl) chlorothioformate,n/a,155,n/a,n/a,0.797,n/a,n/a,n/a
Clc1ccc(Oc2ccc(Cl)c(Cl)c2)cc1Cl,n/a,70,n/a,n/a,-6.98,n/a,n/a,n/a,n/a
Nc1ccc(/N=N/c2ccccc2)cc1,4-Aminoazobenzene,n/a,n/a,n/a,-3.79,n/a,n/a,0.0171,n/a
COc1ccc(-c2ccccc2)cc1NNC(=O)OC(C)C,Bifenazate,n/a,n/a,3.4,n/a,n/a,-8.001,n/a,41.15
CCCCCCOP(=O)(OCCCCCC)OCCCCCC,"Phosphoric acid, trihexyl ester",n/a,n/a,7.04,-6.147,-5.252,n/a,n/a,n/a
CC(C)=C1OC(=O)N(c2cc(OC3CCCC3)c(Cl)cc2F)C1=O,Pentoxazone,n/a,n/a,n/a,n/a,-7.084,-6.746,n/a,n/a
O=[N+]([O-])c1cc(C(F)(F)F)c(Cl)c([N+](=O)[O-])c1Nc1ncc(C(F)(F)F)cc1Cl,Fluazinam,n/a,n/a,n/a,-5.98,-4.251,n/a,n/a,n/a
CON=C(C(=O)OC)c1ccccc1CON=C(C)c1cccc(C(F)(F)F)c1,Trifloxystrobin,n/a,n/a,n/a,-5.83,n/a,n/a,0.0072,n/a
O=C(O)C1C2CCC(O2)C1C(=O)O (stereo unspecified),Endothal,n/a,n/a,n/a,n/a,n/a,n/a,0.867,0
CCC(C)(NC(=O)c1cc(Cl)c(C)c(Cl)c1)C(=O)CCl (stereo unspecified),Zoxamide,n/a,n/a,n/a,-5.69,-7.008,-7.187,0.008788,4.19
CC(O)(CSc1ccc(F)cc1)C(=O)Nc1ccc(C#N)c(C(F)(F)F)c1 (stereo unspecified),Bicalutamide sulfide,n/a,n/a,3.8,-4.936,n/a,n/a,n/a,n/a
CCOC(=O)CCSP(=S)(OC(C)C)OC(C)C,n/a,-89,n/a,3.83,-4.275,-3.645,n/a,n/a,n/a
C=C1C[C@@H]2[C@H](CC[C@]3(C)C(=O)CC[C@@H]23)[C@@]2(C)C=CC(=O)C=C12,Exemestane,n/a,n/a,3.7,n/a,n/a,n/a,0.1,n/a
Clc1ccc(Cl)c(-c2ccccc2)c1Cl,"2,3,6-Trichlorobiphenyl",56,n/a,n/a,n/a,-3.185,n/a,n/a,n/a
Cn1sc(Cl)cc1=O,5-Chloro-2-methyl-3(2H)-isothiazolone,54.5,n/a,0.401,n/a,-1.745,n/a,n/a,n/a
COC(=O)Nc1nc2ccccc2[nH]1,Carbendazim,n/a,n/a,n/a,-4.1,n/a,n/a,0.4633,n/a
FC(F)(F)/C=C/Cl,"(1E)-1-Chloro-3,3,3-trifluoro-1-propene",n/a,19,2.2,-1.837,n/a,n/a,n/a,n/a
C#CC(O)(C=CCl)CC (stereo unspecified),Ethchlorvynol,n/a,n/a,1.8,-3.005,n/a,n/a,0.4583,n/a
Nc1c(Cl)c(Cl)nc(C(=O)O)c1Cl,Picloram,n/a,n/a,n/a,n/a,n/a,n/a,0.1163,0
CC1(C)CCC(=Cc2ccc(Cl)cc2)C1(O)Cn1cncn1 (stereo unspecified),Triticonazole,n/a,n/a,n/a,-4.595,n/a,n/a,0.1375,6.12
CCOC(=O)Cc1ccccc1,Ethyl phenylacetate,n/a,n/a,n/a,-2.34,-0.696,n/a,n/a,n/a
CCS(=O)(=O)Oc1ccc2c(c1)C(C)(C)CO2,Benfuresate,30.1,n/a,n/a,-2.991,-4.68,n/a,n/a,n/a
O=S(=O)(c1ccc(Cl)cc1)c1ccc(Cl)cc1,"4,4'-Dichlorodiphenyl sulfone",n/a,n/a,3.9,n/a,-6.949,n/a,n/a,n/a
COC(=O)c1ccccc1CS(=O)(=O)NC(=O)Nc1nc(OC)cc(OC)n1,Bensulfuron-methyl,n/a,n/a,n/a,n/a,n/a,n/a,0.005775,1.65
CCCCC(C#N)(Cn1cncn1)c1ccc(Cl)cc1 (stereo unspecified),Myclobutanil,n/a,n/a,n/a,-3.315,-5.796,n/a,0.08338,16.4
O=[N+]([O-])c1ccc(O)c([N+](=O)[O-])c1,"2,4-Dinitrophenol",n/a,n/a,n/a,-1.819,n/a,n/a,0.02723,n/a
O=C(NC(=O)c1c(F)cccc1F)Nc1ccc(CON=C(c2ccc(Cl)cc2)C2CC2)cc1,Flucycloxuron,n/a,n/a,n/a,-8.685,n/a,-6.591,n/a,n/a

A selection of 4 entries from above:

{"smiles": "Nc1ccc(/N=N/c2ccccc2)cc1", "name": "4-Aminoazobenzene", "log solubility (log10 mol/L)": "-3.79", "plasma fu": "0.0171"}
{"smiles": "CCC(C)(NC(=O)c1cc(Cl)c(C)c(Cl)c1)C(=O)CCl", "stereo": "stereo unspecified", "name": "Zoxamide", "log solubility (log10 mol/L)": "-5.69", "vapor pressure (log10 mmHg)": "-7.008", "log H (log10 atm·m3/mol)": "-7.187", "plasma fu": "0.008788", "intrinsic clearance (µL/min/10^6 cells)": "4.19"}
{"smiles": "Cn1sc(Cl)cc1=O", "name": "5-Chloro-2-methyl-3(2H)-isothiazolone", "mp (°C)": "54.5", "logP (octanol/water)": "0.401", "vapor pressure (log10 mmHg)": "-1.745"}
{"smiles": "Nc1c(Cl)c(Cl)nc(C(=O)O)c1Cl", "name": "Picloram", "plasma fu": "0.1163", "intrinsic clearance (µL/min/10^6 cells)": "0"}